Biological target: Adenosine receptor A1 (Rattus norvegicus) (UniProt P25099)
Test: Ability to displace [3H]DPCPX from Adenosine A1 receptor in rat cortical membrane at 10e-5 M
Assay type: cell membranes

By UniProt entry, the sequences of proteins in these tests, tags left out.
UniProt P25099, whole entry: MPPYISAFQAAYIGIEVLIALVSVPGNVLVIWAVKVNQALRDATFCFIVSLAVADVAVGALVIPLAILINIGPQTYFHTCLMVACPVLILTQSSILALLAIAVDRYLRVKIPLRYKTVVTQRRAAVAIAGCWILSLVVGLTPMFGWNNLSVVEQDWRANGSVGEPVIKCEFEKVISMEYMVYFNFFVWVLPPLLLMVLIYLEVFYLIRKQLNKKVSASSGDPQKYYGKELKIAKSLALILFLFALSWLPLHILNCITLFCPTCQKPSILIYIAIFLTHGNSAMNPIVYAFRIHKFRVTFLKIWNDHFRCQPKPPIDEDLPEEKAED

Displacement: 63.7%
SMILES: CCCCC#Cc1nc(N)c2ncn([C@@H]3O[C@H](CO)[C@@H](O)[C@H]3O)c2n1

From ChEMBL document CHEMBL1135807, “2,5'-Disubstituted adenosine derivatives: evaluation of selectivity and efficacy for the adenosine A(1), A(2A), and A(3) receptor” (J Med Chem, 2002)
